Source: US12180176B2, “Fluorinated empathogens” (priority 2021, dated 2024)

Test: Metabolic stability in human liver microsomes
Assay type: in vitro ADME

Structure (SMILES): CCNC(C)Cc1ccc2c(c1)OCO2 (stereo not drawn)
- percent compound remaining (Time 0.0): 100.0%
- percent compound remaining (Time 15.00): 97.15%
- percent compound remaining (Time 30.00): 88.20%
- percent compound remaining (Time 45.00): 84.45%
- percent compound remaining (Time 60.00 (one hour of incubation), listed as ASR-1003): 75.55%
- percent compound remaining (Time 60.00 (one hour of incubation), listed as MIDEA): 7600%
